Data published in PubChem BioAssay AID720553 (National Center for Advancing Translational Sciences (NCATS), 2013).
This is a selection; strong and weak results do not stand in their true shares. The source made the active and inactive calls.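 The calls were made as follows: active = maximum activity change below -70%; inconclusive = maximum activity change from -70% to -50%; inactive = maximum activity change above -50%.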
% is scaled to controls: 0 for no effect and ±100 for the full control effect.

The compounds below were run on Potassium voltage-gated channel subfamily H member 2, brain isoform KCNH2 3.1 (human) (assay: qHTS for Inhibitors of KCHN2 3.1: Mutant qHTS). Settings: U2OS KCNH2 3.1, thallium flux FluxOr; active compounds read low.
Excerpt: Many antipsychotic drugs that inhibit the neurotransmitter dopamine also bind to hERG1 channel which might help explain their antipsychotic activity but also produces cardiac side effects. The discovery of the novel KCNH2 3.1 isoform offers a potential new target for the development of antipsychotic drugs without cardiac side effects. This proposal will use a high throughput thallium flux assay developed for KCNH2 to screen compounds that modulate the activity of KCNH2 3.1. The wild type KCNH2 channel will also be screened in parallel to help define the selective modulators of this KCNH2 3.1 potassium channel. The resulting compounds will be validated in electrophysiology experiments. The availability of animal models will allow future testing in vivo for effects on memory and other aspects of animal physiology linked with psychosis. NIH Chemical Genomics Center [NCGC] NIH Molecular Libraries Probe Centers Network [MLPCN] MLPCN Grant: MH096539 Assay Submitter (PI): James Barrow, Johns Hopkins University, Lieber Institute for Brain Development
U2OS cells were resuspended in cell media containing 10% fetal calf serum (FCS) at a concentration of 2 million cells / mL. The solution was treated with the mutant (3.1) virus at 1.77 x 10^8 / mL and allowed to incubate at room temperature in the dark. After 4 hours of incubation, DMEM + 10% fetal bovine serum (FBS) was added to the cell solution. Three microliter was then dispensed into a 1536 tissue culture treated black assay plates which were incubated overnight at 37 C. Two microliter of loading buffer (HBSS + HEPES + Red40 dye quencher + FluxOr dye) was added and the assay plates were incubated for 45 min at room temperature in the dark. […] A stimulation buffer was added to the plate and the second kinetic read (2 min) was obtained. The rate constant was calculated from the kinetic reads and normalized to the positive and negative DMSO controls.
For `CP(=O)(Nc1ccccn1)Oc1ccc(Cl)cc1` (stereo not drawn), the activity change was inactive: 5.68%.
`CP(=O)(Oc1ccccc1)OC(c1ccccc1)C(F)(F)F` (stereo not drawn) was tested, and the activity change was inactive: 1.66%.
In the case of `Cc1cccc(C)c1OP(C)(=O)Nc1ccc(SC(F)(F)F)cc1` (stereo not drawn), the activity change is reported as inactive: 1.08%.
For `CP(=O)(Nc1ccc(SC(F)(F)F)cc1)Oc1ccc(Cl)cc1` (stereo not drawn), the activity change was inactive: 12.5%.
For `Cc1cc(C)cc(OP(C)(=O)Nc2ccc(SC(F)(F)F)cc2)c1` (stereo not drawn), the activity change was inactive: -0.023%.
With `CCc1ccc(OP(C)(=O)N2CCN(c3ccc([N+](=O)[O-])cc3)CC2)cc1` (stereo not drawn) the activity change was inactive: -6.91%.
For `CP(=O)(NC(=O)Nc1ccccc1)Oc1ccccc1` (stereo not drawn), the activity change was inactive: -8.71%.
In the case of `O=[N+]([O-])c1cc([N+](=O)[O-])c(-c2cnn(-c3ccccc3)c2)c([N+](=O)[O-])c1`, the activity change is reported as inactive: -4.07%.
For `Cc1nc2ccc3ccccc3c2s1.O=[N+]([O-])c1cc([N+](=O)[O-])c(O)c([N+](=O)[O-])c1`, the activity change was inactive: -13.6%.
In the case of `O=[N+]([O-])c1cc([N+](=O)[O-])c(-n2nnc3ccccc32)c([N+](=O)[O-])c1`, the activity change is reported as inactive: -0.282%.
`COc1ccccc1OP(C)(=O)Nc1c(C)cccc1C` (stereo not drawn) was tested, and the activity change was inactive: 5.35%.
In the case of `CN1CCCCC1COC(=O)C1(O)c2ccccc2CCc2ccccc21` (stereo not drawn), the activity change is reported as inactive: -4.31%.
With `CP(=O)(Nc1ccc(SC(F)(F)F)cc1)Oc1ccccc1` (stereo not drawn) the activity change was inactive: -4.65%.
For `CCCOc1ccc(NP(C)(=O)Oc2ccc(Cl)cc2)cc1` (stereo not drawn), the activity change was inactive: 9.24%.
In the case of `O=[N+]([O-])c1cc([N+](=O)[O-])c(Nc2nnnn2CCO)c([N+](=O)[O-])c1`, the activity change is reported as inactive: 4.18%.
For `CC1=C2N=C(C=C3N=C(C(C)=C4[N-][C@@](C)([C@@H]5N=C1[C@](C)(CCC(=O)NC[C@@H](C)OP(=O)([O-])O[C@H]1[C@@H](O)[C@@H](n6cnc7cc(C)c(C)cc76)O[C@@H]1CO)[C@H]5CC(N)=O)[C@@](C)(CC(N)=O)[C@@H]4CCC(N)=O)[C@@](C)(CC(N)=O)[C@@H]3CCC(N)=O)C(C)(C)[C@@H]2CCC(N)=O.[C-]#N.[Co+3]`, the activity change was inactive: -6.07%.
For `CC1=NCCc2c1[nH]c1ccccc21.O=[N+]([O-])c1cc([N+](=O)[O-])c(O)c([N+](=O)[O-])c1`, the activity change was inactive: 4.09%.
In the case of `Cc1ccc(C)c(NP(C)(=O)Oc2ccccc2)c1` (stereo not drawn), the activity change is reported as inactive: 9.64%.
With `CP(=O)(Nc1cccc(Br)c1)Oc1ccccc1` (stereo not drawn) the activity change was inactive: 6.15%.
In the case of `Cc1cc(C)cc(OP(C)(=O)Nc2ccccn2)c1` (stereo not drawn), the activity change is reported as inactive: 20.1%.
`COc1ccccc1OP(C)(=O)Nc1cccc(Br)c1` (stereo not drawn) was tested, and the activity change was inactive: -14.9%.
`CCOC(=O)c1ccc(NP(C)(=O)Oc2cc(C)cc(C)c2)cc1` (stereo not drawn) was tested, and the activity change was inactive: -20.5%.
For `Cc1cc(C)cc(OP(C)(=O)Nc2ccc(C)cc2C)c1` (stereo not drawn), the activity change was inactive: -6.53%.
